# According to US20110028463A1, “AMIDE COMPOUNDS” (Astellas Pharma Inc., priority 2007, published 2011):
# Amino acid sequences for entries named in this document (tags omitted).
# UniProt P43114, whole entry: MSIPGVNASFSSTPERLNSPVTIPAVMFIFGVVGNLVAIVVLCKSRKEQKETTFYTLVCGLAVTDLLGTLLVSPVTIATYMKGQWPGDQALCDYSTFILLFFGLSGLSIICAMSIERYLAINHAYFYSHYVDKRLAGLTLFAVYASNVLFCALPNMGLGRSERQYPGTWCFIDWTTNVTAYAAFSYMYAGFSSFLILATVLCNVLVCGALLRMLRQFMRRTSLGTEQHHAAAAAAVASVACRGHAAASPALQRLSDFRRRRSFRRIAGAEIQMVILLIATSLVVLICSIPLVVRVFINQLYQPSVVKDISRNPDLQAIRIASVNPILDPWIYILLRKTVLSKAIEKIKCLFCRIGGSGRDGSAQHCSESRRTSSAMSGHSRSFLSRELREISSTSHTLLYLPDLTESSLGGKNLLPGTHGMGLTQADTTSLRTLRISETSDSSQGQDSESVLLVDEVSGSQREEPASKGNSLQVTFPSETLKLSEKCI
# Molecular target: rat EP4 receptor (Rattus norvegicus, UniProt P43114)
# Assay: Evaluation test on rat EP4 receptor affinity ([3H]PGE2 binding assay)
# Conditions: read-out: rat EP4 receptor affinity (Ki); comparison compound, same test method as Table 1
structure (smiles),measurement,value
C[C@H](NC(=O)c1cc(Cl)cnc1N(C)Cc1ccc(Cl)cc1)c1ccc(C(=O)O)cc1,Ki,0.048 µM
